Test [1] has as its target human 15-PGDH (Homo sapiens, UniProt P15428). Put plainly: Evaluation of 15-PGDH inhibitory activity (fluorescence enzyme assay, NAD+/PGE2). The note with it: read-out: IC50 value, human 15-PGDH enzyme, fluorescence Vmax.
Test [2] relates to A549 cells. Put plainly: Measurement of PGE2-increasing activity in A549 cells (IL-1β stimulated, PGE2 quantified in supernatant). In kind it is cell-based. To be noted: concentration of 1 µM of each compound; IL-1β treated A549 cells.

By UniProt entry, the sequences of proteins in these tests, tags left out.
UniProt P15428, whole entry: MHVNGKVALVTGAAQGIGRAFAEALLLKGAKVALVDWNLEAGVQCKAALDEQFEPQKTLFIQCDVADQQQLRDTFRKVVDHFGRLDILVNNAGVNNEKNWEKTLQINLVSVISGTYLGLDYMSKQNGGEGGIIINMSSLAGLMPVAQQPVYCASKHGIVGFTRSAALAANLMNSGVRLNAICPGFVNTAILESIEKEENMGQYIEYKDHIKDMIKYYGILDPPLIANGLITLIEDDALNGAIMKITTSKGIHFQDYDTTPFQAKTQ

`Cn1cnc2cc(-c3cccc4c(C(=O)N5CCCCC5)cnn34)cnc2c1=O`: in test [1], the IC50 (in general, the concentration that inhibits the measured activity by half) was below 100 nM. Besides, the “Increased PGE2 production in A549 cells” value in test [2] is recorded as “++ (PGE2 increasing ability ≥ 1.5)”.

The values are drawn from patent publication EP4653437A2 (Innovo Therapeutics Inc., priority 2023, dated 2024).
